Test results: patent publication US9248103B2, “Method for improving water solubility of slightly soluble substance” (Kabushiki Kaisha Sangi, priority 2012, dated 2016)

Key:
[1] = Dissolution test of poorly-soluble substances, distilled water; assay type: physicochemical
[2] = Dissolution test of poorly-soluble substances, 2nd fluid for disintegration test (pH 6.8) of the Japanese Pharmacopoeia; assay type: physicochemical
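Further: Comparative example rows not the inventive coated formulation.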

NC(N)=Nc1nc(CSCCC(N)=NS(N)(=O)=O)cs1
Dissolved amount, elution time 30 min ([1]; 30 min): 1566.8 µg/mL
Dissolved amount, elution time 60 min ([1]; 60 min): 1565.8 µg/mL
Dissolved amount, elution time 1 min [2]: 1980.2 µg/mL
